Measured values taken from US20230399374A1, “Compounds, Compositions and Methods of Use to Treat Bone Fractures” (PURDUE RESEARCH FOUNDATION, priority 2020, published 2023).

System: midshaft femur fractures
Experiment: Biodistribution of radio-iodinated peptide payloads (CK2.3 and others) coupled to acidic oligopeptides
Details: 24 hours post-injection, 10 days post-fracture, FIG. 4

HSDGIFTDSYSRYRKQMAVKKYLAAVLGKRYKQRVKNKC [PACAP]
fracture targetability of payloads coupled to (L)Asp10 (in words): differed somewhat from the other anabolic peptides in fracture targetability
